The assay concerns the target VEGFR2 (Homo sapiens (Human), UniProt P35968). Put plainly: VEGFR2 Kinase Assay (biochemical KDR kinase assay, poly-Glu-Tyr ELISA). Particulars: purified cytoplasmic domain KDR protein, 2.7 μM ATP, 15 minute incubation at 30° C.; read-out: VEGFR2 Enzyme IC50. The protocol: Biochemical KDR kinase assays were performed in 96 well microtiter plates that were coated overnight with 75 μg/well of poly-Glu-Tyr (4:1) in 10 mM Phosphate Buffered Saline (PBS), pH 7.4. The coated plates were washed with 2 mLs per well PBS+0.05% Tween-20 (PBS-T), blocked by incubation with PBS containing 1% BSA, then washed with 2 mLs per well PBS-T prior to starting the reaction. Reactions were carried out in 100 μL reaction volumes containing 2.7 μM ATP in kinase buffer (50 mM Hepes buffer pH 7.4, 20 mM MgCl2, 0.1 mM MnCl2 and 0.2 mM Na3VO4). Test compounds were reconstituted in 100% DMSO and added to the reaction to give a final DMSO concentration of 5%. Reactions were initiated by the addition 20 ul per well of kinase buffer containing 200-300 ng purified cytoplasmic domain KDR protein (BPS Bioscience, San Diego, Calif.). Following a 15 minute incubation at 30° C., the reactions were washed 2 mLs per well PBS-T. 100 μl of a monoclonal anti-phosphotyrosine antibody-peroxidase conjugate diluted 1:10,000 in PBS-T was added to the wells for 30 minutes. […] The reaction was terminated by the addition of 100 μl of 2.5N H2SO4 to each well and read using a microplate ELISA reader set at 492 nm. IC50 values for compound inhibition were calculated directly from graphs of optical density (arbitrary units) versus compound concentration following subtraction of blank values.

The chains behind the UniProt entries cited, without tags or fusion partners. Residues count along the entry.
UniProt P35968, 786-1356: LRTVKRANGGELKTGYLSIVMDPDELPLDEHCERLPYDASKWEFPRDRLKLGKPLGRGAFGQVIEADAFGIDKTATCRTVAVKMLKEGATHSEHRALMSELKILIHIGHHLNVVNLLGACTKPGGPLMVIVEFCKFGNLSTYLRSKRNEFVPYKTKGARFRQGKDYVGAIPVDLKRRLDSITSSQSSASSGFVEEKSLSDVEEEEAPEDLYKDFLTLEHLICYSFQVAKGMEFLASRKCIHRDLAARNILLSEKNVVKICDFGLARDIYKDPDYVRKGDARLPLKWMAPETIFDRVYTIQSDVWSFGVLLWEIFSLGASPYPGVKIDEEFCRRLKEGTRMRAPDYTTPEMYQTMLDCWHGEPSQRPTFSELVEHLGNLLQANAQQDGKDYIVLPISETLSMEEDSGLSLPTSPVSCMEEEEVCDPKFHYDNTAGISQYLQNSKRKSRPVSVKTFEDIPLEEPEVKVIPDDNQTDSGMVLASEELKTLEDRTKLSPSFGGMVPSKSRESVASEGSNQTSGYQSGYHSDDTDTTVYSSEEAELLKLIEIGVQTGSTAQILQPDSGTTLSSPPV

Turning to `CC(C)NC(=O)Nc1ccc(C2CN=C3c4ccccc4NC(=O)N3C2)cc1` (stereo not shown) [Example 14, 1-Isopropyl-3-[4-(6-oxo-3,4,6,7-tetrahydro-2H-pyrimido[1,2-c]quinazolin-3-yl)phenyl]urea], the IC50 is more than 10 µM.

Broadly, the IC50 is the point on the concentration scale where inhibition reaches its midpoint.
